Membrane permeability of cyclic peptides

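The data file gives no further conditions (lipid, pH, time, direction or concentration), and values from different papers need not be comparable. The list need not hold all peptides of the study. Peptides that the database sets to -10, its floor, are left out.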

PAMPA measures passive passage through an artificial lipid membrane.
P is given in units of 10^-6 cm/s (from log10 values with two decimals); larger means faster passage.

The entry for CC(=O)N1CCC[C@@H]1C(=O)N(C)[C@@H](CC(C)C)C(=O)N[C@@H]1C(=O)N(C)[C@@H](CC(C)C)C(=O)N(C)[C@H](CC(C)C)C(=O)N(C)[C@H](CC(C)C)C(=O)N(C)[C@H](C)C(=O)N[C@H](CC(C)C)C(=O)N2CCC[C@H]2C(=O)O[C@@H]1C lists PAMPA 4.9 × 10^-6 cm/s. CC(=O)N[C@@H]1C(=O)N2CCC[C@H]2C(=O)N(C)[C@H](CC(C)C)C(=O)N[C@@H](CC(C)C)C(=O)N[C@H](CC(C)C)C(=O)N[C@H](CC(C)C)C(=O)N[C@H](C)C(=O)N[C@@H](CC(C)C)C(=O)N2CCC[C@@H]2C(=O)O[C@@H]1C is reported with PAMPA 0.048 × 10^-6 cm/s. For CC(=O)N1CCC[C@@H]1C(=O)N(C)[C@H](CC(C)C)C(=O)N[C@@H]1C(=O)N[C@H](CC(C)C)C(=O)N[C@@H](CC(C)C)C(=O)N[C@@H](CC(C)C)C(=O)N(C)[C@@H](C)C(=O)N[C@@H](CC(C)C)C(=O)N2CCC[C@@H]2C(=O)O[C@@H]1C the data give PAMPA 0.89 × 10^-6 cm/s. Listed for CC(=O)N1CCC[C@H]1C(=O)N[C@@H]1C(=O)N(C)[C@H](CC(C)C)C(=O)N[C@H](CC(C)C)C(=O)N[C@H](CC(C)C)C(=O)N(C)[C@@H](CC(C)C)C(=O)N[C@@H](C)C(=O)N[C@@H](CC(C)C)C(=O)N2CCC[C@@H]2C(=O)O[C@@H]1C: PAMPA 0.79 × 10^-6 cm/s.

CC(=O)N1CCC[C@@H]1C(=O)N(C)[C@@H](CC(C)C)C(=O)N[C@@H]1C(=O)N[C@@H](CC(C)C)C(=O)N(C)[C@H](CC(C)C)C(=O)N(C)[C@H](CC(C)C)C(=O)N(C)[C@@H](C)C(=O)N[C@@H](CC(C)C)C(=O)N2CCC[C@@H]2C(=O)O[C@@H]1C is reported with PAMPA 4.9 × 10^-6 cm/s. Listed for CC(=O)N1CCC[C@@H]1C(=O)N(C)[C@@H](CC(C)C)C(=O)N[C@@H]1C(=O)N[C@H](CC(C)C)C(=O)N[C@H](CC(C)C)C(=O)N(C)[C@H](CC(C)C)C(=O)N[C@@H](C)C(=O)N[C@H](CC(C)C)C(=O)N2CCC[C@H]2C(=O)O[C@@H]1C: PAMPA 1.3 × 10^-6 cm/s. Listed for CC(=O)N1CCC[C@@H]1C(=O)N(C)[C@@H](CC(C)C)C(=O)N[C@@H]1C(=O)N[C@@H](CC(C)C)C(=O)N[C@H](CC(C)C)C(=O)N(C)[C@H](CC(C)C)C(=O)N(C)[C@H](C)C(=O)N[C@@H](CC(C)C)C(=O)N2CCC[C@H]2C(=O)O[C@@H]1C: PAMPA 1.9 × 10^-6 cm/s. CC(=O)N1CCC[C@@H]1C(=O)N(C)[C@@H](CC(C)C)C(=O)N[C@@H]1C(=O)N[C@@H](CC(C)C)C(=O)N(C)[C@@H](CC(C)C)C(=O)N[C@@H](CC(C)C)C(=O)N(C)[C@H](C)C(=O)N[C@@H](CC(C)C)C(=O)N2CCC[C@@H]2C(=O)O[C@@H]1C is reported with PAMPA 3.5 × 10^-6 cm/s.

CC(=O)N1CCC[C@H]1C(=O)N(C)[C@@H](CC(C)C)C(=O)N[C@@H]1C(=O)N(C)[C@H](CC(C)C)C(=O)N(C)[C@H](CC(C)C)C(=O)N[C@H](CC(C)C)C(=O)N(C)[C@@H](C)C(=O)N[C@H](CC(C)C)C(=O)N2CCC[C@H]2C(=O)O[C@@H]1C has PAMPA 9.8 × 10^-6 cm/s. Listed for CC(=O)N1CCC[C@@H]1C(=O)N(C)[C@@H](CC(C)C)C(=O)N[C@@H]1C(=O)N[C@H](CC(C)C)C(=O)N[C@H](CC(C)C)C(=O)N(C)[C@@H](CC(C)C)C(=O)N(C)[C@@H](C)C(=O)N[C@H](CC(C)C)C(=O)N2CCC[C@H]2C(=O)O[C@@H]1C: PAMPA 1.1 × 10^-6 cm/s. For CC(=O)N1CCC[C@@H]1C(=O)N(C)[C@@H](CC(C)C)C(=O)N[C@@H]1C(=O)N(C)[C@@H](CC(C)C)C(=O)N[C@H](CC(C)C)C(=O)N[C@H](CC(C)C)C(=O)N(C)[C@H](C)C(=O)N[C@H](CC(C)C)C(=O)N2CCC[C@@H]2C(=O)O[C@@H]1C the data give PAMPA 0.65 × 10^-6 cm/s. The entry for CC(=O)N1CCC[C@H]1C(=O)N(C)[C@@H](CC(C)C)C(=O)N[C@@H]1C(=O)N[C@H](CC(C)C)C(=O)N(C)[C@H](CC(C)C)C(=O)N[C@H](CC(C)C)C(=O)N[C@H](C)C(=O)N[C@H](CC(C)C)C(=O)N2CCC[C@H]2C(=O)O[C@@H]1C lists PAMPA 0.71 × 10^-6 cm/s.

For CC(=O)N1CCC[C@H]1C(=O)N(C)[C@H](CC(C)C)C(=O)N[C@@H]1C(=O)N[C@H](CC(C)C)C(=O)N(C)[C@@H](CC(C)C)C(=O)N[C@@H](CC(C)C)C(=O)N(C)[C@@H](C)C(=O)N[C@H](CC(C)C)C(=O)N2CCC[C@H]2C(=O)O[C@@H]1C the data give PAMPA 6.2 × 10^-6 cm/s. The entry for CC(=O)N1CCC[C@H]1C(=O)N(C)[C@@H](CC(C)C)C(=O)N[C@@H]1C(=O)N(C)[C@H](CC(C)C)C(=O)N[C@H](CC(C)C)C(=O)N(C)[C@H](CC(C)C)C(=O)N[C@@H](C)C(=O)N[C@H](CC(C)C)C(=O)N2CCC[C@@H]2C(=O)O[C@@H]1C lists PAMPA 0.18 × 10^-6 cm/s. Listed for CC(=O)N1CCC[C@H]1C(=O)N[C@@H]1C(=O)N(C)[C@H](CC(C)C)C(=O)N[C@H](CC(C)C)C(=O)N[C@H](CC(C)C)C(=O)N[C@H](CC(C)C)C(=O)N(C)[C@@H](C)C(=O)N[C@@H](CC(C)C)C(=O)N2CCC[C@@H]2C(=O)O[C@@H]1C: PAMPA 0.037 × 10^-6 cm/s. The entry for CC(=O)N[C@@H]1C(=O)N2CCC[C@H]2C(=O)N(C)[C@H](CC(C)C)C(=O)N(C)[C@H](CC(C)C)C(=O)N(C)[C@@H](CC(C)C)C(=O)N(C)[C@H](CC(C)C)C(=O)N(C)[C@@H](C)C(=O)N[C@@H](CC(C)C)C(=O)N2CCC[C@@H]2C(=O)O[C@@H]1C lists PAMPA 5 × 10^-6 cm/s.

The entry for CC(=O)N1CCC[C@H]1C(=O)N[C@@H]1C(=O)N[C@H](CC(C)C)C(=O)N(C)[C@@H](CC(C)C)C(=O)N(C)[C@@H](CC(C)C)C(=O)N(C)[C@@H](CC(C)C)C(=O)N[C@H](C)C(=O)N[C@@H](CC(C)C)C(=O)N2CCC[C@@H]2C(=O)O[C@@H]1C lists PAMPA 7.6 × 10^-6 cm/s. CC(=O)N1CCC[C@@H]1C(=O)N(C)[C@H](CC(C)C)C(=O)N[C@@H]1C(=O)N[C@@H](CC(C)C)C(=O)N(C)[C@H](CC(C)C)C(=O)N(C)[C@H](CC(C)C)C(=O)N[C@@H](C)C(=O)N[C@@H](CC(C)C)C(=O)N2CCC[C@H]2C(=O)O[C@@H]1C has PAMPA 0.22 × 10^-6 cm/s. For CC(=O)N1CCC[C@H]1C(=O)N[C@@H]1C(=O)N[C@H](CC(C)C)C(=O)N[C@H](CC(C)C)C(=O)N[C@H](CC(C)C)C(=O)N(C)[C@@H](CC(C)C)C(=O)N(C)[C@@H](C)C(=O)N[C@@H](CC(C)C)C(=O)N2CCC[C@@H]2C(=O)O[C@@H]1C the data give PAMPA 1.2 × 10^-6 cm/s. The entry for CC(=O)N1CCC[C@H]1C(=O)N(C)[C@H](CC(C)C)C(=O)N[C@@H]1C(=O)N(C)[C@H](CC(C)C)C(=O)N[C@@H](CC(C)C)C(=O)N(C)[C@H](CC(C)C)C(=O)N(C)[C@H](C)C(=O)N[C@@H](CC(C)C)C(=O)N2CCC[C@H]2C(=O)O[C@@H]1C lists PAMPA 6.8 × 10^-6 cm/s.

The 2 lowest values of PAMPA among the entries above:

SMILES	PAMPA (10^-6 cm/s)
CC(=O)N1CCC[C@H]1C(=O)N[C@@H]1C(=O)N(C)[C@H](CC(C)C)C(=O)N[C@H](CC(C)C)C(=O)N[C@H](CC(C)C)C(=O)N[C@H](CC(C)C)C(=O)N(C)[C@@H](C)C(=O)N[C@@H](CC(C)C)C(=O)N2CCC[C@@H]2C(=O)O[C@@H]1C	0.037
CC(=O)N[C@@H]1C(=O)N2CCC[C@H]2C(=O)N(C)[C@H](CC(C)C)C(=O)N[C@@H](CC(C)C)C(=O)N[C@H](CC(C)C)C(=O)N[C@H](CC(C)C)C(=O)N[C@H](C)C(=O)N[C@@H](CC(C)C)C(=O)N2CCC[C@@H]2C(=O)O[C@@H]1C	0.048

Collected by the curators of CycPeptMPDB (Li et al. 2023) from Kelly et al. 2021, doi:10.1021/jacs.0c06115.